Data published in patent publication US20160033500A1.

Experiments:
[1] = target: human serum albumin (human) (UniProt P02768); test: coefficient b of the two-exponential dissociation fit (Equation I), HSA sensor chip, 10 µM peptide
[2] = target: human serum albumin (human) (UniProt P02768); test: coefficient b of the two-exponential dissociation fit (Equation I), HSA sensor chip, 2 µM peptide

In the case of “Amyloid β40 peptide (peptide; other documents disagree on this pair)”, the b value [1] is reported as 0.841.
“amyloid β42 peptide (peptide; other documents disagree on this pair)” was tested, and the b value [2] was 0.09.
